According to PubChem BioAssay AID624167 (Sanford-Burnham Center for Chemical Genomics, 2012):
This is a selection; strong and weak results do not stand in their true shares.

The chains behind the UniProt entries cited, without tags or fusion partners.
UniProt Q6IN02, whole entry, looked up: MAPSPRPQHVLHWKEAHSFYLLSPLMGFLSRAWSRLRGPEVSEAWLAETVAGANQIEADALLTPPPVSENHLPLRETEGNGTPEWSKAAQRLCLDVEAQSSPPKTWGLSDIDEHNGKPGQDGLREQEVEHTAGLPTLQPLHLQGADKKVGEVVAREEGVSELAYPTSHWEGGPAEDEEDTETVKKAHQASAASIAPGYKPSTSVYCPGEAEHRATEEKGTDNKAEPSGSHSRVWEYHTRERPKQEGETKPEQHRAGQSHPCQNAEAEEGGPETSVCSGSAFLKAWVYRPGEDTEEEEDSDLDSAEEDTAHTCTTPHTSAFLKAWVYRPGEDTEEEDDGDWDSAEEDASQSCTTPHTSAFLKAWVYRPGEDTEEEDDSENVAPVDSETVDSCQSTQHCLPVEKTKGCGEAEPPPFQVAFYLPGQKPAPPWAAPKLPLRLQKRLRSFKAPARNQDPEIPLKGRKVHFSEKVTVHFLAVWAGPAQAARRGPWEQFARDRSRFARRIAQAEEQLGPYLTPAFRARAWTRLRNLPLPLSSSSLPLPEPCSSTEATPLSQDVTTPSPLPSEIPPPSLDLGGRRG

Target: PEG-3 (UniProt Q6IN02)
Test: Peg3 promoter luciferase inhibitors, potency, dose response, cell-based, HeLa, CREF/GAPDH counter-screen panel (AID 624167)
Details: HeLa PEG-Prom luciferase reporter, overnight, CREF/GAPDH counter-screens; run 1, dose range 1, at 100 µM (top of the series)

| Compound | inhibition [%] |
| --- | --- |
| CCCCn1nnnc1C(c1cccs1)N1CCC(n2c(=O)[nH]c3ccccc32)CC1 (configuration not stated) | 102 |
| O=c1[nH]c2ccccc2n1C1CCN(C(c2cccc3ccccc23)c2nnnn2C2CCCC2)CC1 (configuration not stated) | 34.9 |
